Earlier results as cited in publication PMC11852496, “A Modular Customizable Ligand-Conjugate (LC) System Targeting Ghrelin O-Acyltransferase” (Biomolecules, 2025).
pIC50: −log10 of the molar value.

The chains behind the UniProt entries cited, without tags or fusion partners.
UniProt Q96T53, whole entry: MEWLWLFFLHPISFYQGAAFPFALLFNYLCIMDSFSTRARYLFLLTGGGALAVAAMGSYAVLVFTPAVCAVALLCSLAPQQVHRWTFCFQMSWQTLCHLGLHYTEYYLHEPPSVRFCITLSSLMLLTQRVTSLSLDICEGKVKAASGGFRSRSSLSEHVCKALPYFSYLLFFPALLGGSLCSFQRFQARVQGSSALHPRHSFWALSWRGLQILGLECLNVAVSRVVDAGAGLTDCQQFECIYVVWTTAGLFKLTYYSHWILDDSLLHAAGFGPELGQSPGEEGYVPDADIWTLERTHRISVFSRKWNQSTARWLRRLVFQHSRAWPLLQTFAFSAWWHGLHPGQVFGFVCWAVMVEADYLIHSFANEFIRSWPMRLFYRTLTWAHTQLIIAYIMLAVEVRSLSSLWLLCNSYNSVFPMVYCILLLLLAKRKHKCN

Target: hGOAT (human ghrelin O-acyltransferase) (Homo sapiens, UniProt Q96T53)
Conditions: read-out: IC50 (GOAT); previously reported ligands, Figure 1A; cited from earlier work

For CC(C)C[C@H](NC(=O)[C@H](Cc1cccc2ccccc12)NC(=O)[C@H](CN)NC(=O)[C@H](CO)NC(=O)CN)C(=O)N[C@@H](CO)C(=O)N1CCC[C@H]1C(=O)N[C@H](C(N)=O)[C@@H](C)O, the pIC50 is given as 8.22.
